As a reminder, the IC50 is the concentration needed to halve the response being measured.

By UniProt entry, the sequences of proteins in these tests, tags left out.
UniProt P31639, whole entry: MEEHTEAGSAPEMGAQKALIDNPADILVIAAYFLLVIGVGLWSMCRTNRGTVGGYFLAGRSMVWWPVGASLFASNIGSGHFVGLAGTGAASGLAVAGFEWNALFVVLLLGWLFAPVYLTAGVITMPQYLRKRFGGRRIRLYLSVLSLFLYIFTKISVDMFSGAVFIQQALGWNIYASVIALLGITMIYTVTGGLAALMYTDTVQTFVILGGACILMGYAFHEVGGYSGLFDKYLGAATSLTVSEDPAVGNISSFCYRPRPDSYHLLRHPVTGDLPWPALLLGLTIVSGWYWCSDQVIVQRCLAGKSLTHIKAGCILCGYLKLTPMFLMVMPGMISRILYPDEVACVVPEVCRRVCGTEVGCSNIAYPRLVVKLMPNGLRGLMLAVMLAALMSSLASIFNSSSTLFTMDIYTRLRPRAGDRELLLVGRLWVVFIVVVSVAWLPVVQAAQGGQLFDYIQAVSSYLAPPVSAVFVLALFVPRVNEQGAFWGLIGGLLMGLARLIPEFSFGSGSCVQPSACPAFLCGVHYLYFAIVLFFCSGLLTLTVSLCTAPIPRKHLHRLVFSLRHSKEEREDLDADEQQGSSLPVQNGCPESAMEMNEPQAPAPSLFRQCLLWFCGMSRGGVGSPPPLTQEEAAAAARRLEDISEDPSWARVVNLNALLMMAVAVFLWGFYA
UniProt P13866, whole entry: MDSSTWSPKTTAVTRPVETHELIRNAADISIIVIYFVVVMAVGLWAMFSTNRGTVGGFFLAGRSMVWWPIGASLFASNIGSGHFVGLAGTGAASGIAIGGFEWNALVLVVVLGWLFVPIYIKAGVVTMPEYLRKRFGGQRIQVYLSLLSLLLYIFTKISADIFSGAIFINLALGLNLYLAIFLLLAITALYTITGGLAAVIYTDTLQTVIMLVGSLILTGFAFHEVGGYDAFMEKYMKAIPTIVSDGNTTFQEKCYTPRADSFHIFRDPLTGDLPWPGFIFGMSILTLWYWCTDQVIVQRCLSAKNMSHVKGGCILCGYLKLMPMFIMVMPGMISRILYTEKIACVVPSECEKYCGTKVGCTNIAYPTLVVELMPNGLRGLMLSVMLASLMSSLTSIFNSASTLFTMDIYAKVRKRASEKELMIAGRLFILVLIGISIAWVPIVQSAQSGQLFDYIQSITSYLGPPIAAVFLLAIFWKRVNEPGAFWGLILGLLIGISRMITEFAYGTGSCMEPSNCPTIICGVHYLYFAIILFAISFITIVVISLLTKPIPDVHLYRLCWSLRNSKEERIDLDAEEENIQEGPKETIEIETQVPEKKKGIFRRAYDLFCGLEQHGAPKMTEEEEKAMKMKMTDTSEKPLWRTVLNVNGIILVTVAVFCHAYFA

Among the data in patent US8258151B2, “3-aminoimidazo [1,2-A] pyridine derivatives as SGLT inhibitors” (Merck Patent GmbH, priority 2006, dated 2012) are IC50 values, retold here.

The target in one test is SGLT2 (Homo sapiens, UniProt P31639). Nature of the test: SGLT2 activity measurement: 14C-AMG uptake in BHK cells transfected with SGLT2. Conditions: read-out: SGLT2-IC50, AMG 2 mM, 37° C., 90 min. The text has this:
(§1) The compounds can be tested on their SGLT inhibition properties by means of BHK cells expressing SGLT1 and SGLT2. The production of the cells and the testing can be carried out as described below.
To construct the SGLT2 expression vector (KL224), the SLC5A2 gene (homologous to NM_003041) was amplified from a cDNA library using standard PCR technology and cloned over NheI/XhoI sites into PCI-neo expression vector (Promega) containing neomycin as a selection marker. In this vector, transcription used the enhancer/promoter of human cytomegalovirus and the SV40 polyadenylation signal.
The final vector KL224 together with an additional vector containing a dihydrofolate reductase gene as a selection marker was introduced into cells. […]
(§2) BHK cells (transfected with SGLT1 or SGLT2) were seeded into 96-well microtitre plates (Cultureplates, Perkin Elmer). […] The radioactivity was counted in a Topcount microplate scintillation counter (Perkin Elmer). The non-specific uptake was determined in sodium-free assay buffer (266 mM sucrose, 2 mM KCl, 1 mM CaCl2, 1 mM MgCl2, 10 mM HEPES, 5 mM Tris, adjusted with 1 M KOH to pH 7.4).

A further test addresses SGLT1 (Homo sapiens, UniProt P13866). Nature of the test: SGLT1 activity measurement: 14C-AMG uptake in BHK cells transfected with SGLT1. Conditions: read-out: SGLT1-IC50, AMG 50 μM, 37° C., 90 min.
Description: as §1
To construct the SGLT1 expression vector (KL225), the SLC5A1 gene (homologous to NM_000343) was amplified from a cDNA library using standard PCR technology and cloned over NheI/XhoI sites into pcDNA3.1 expression vector (Invitrogen) containing neomycin as a selection marker. In this vector, transcription uses the enhancer/promoter of human cytomegalovirus.
The final vector KL225 together with an additional vector containing a dihydrofolate reductase gene as a selection marker was introduced into cells. […]
as §2

SMILES strings stand for the structures.

Regarding `Cc1cccc(C)c1Nc1c(-c2c(C)cc(OS(C)(=O)=O)cc2OCC(N)=O)nc2ccccn12`, the results for the IC50 on SGLT2 and at SGLT1 were 10 to 1000 nM and over 10 µM, respectively.
